We go through two molecules from PubChem BioAssay AID1346984 (Tox21, 2019).

The entries are a selection whose mix differs from that of the whole data set. Inconclusive results are not listed. The source made the active and inactive calls. Calls follow the shape of the dose curve; as a rule, active = well fitted activation curve with a large enough effect in the repeat runs; inconclusive = weak or mixed curves; inactive = no such curve, though single readings can be large or run the other way.
% is scaled to controls: 0 for no effect and ±100 for the full control effect; potency is read from the fitted curve at half-maximal effect.

The target of this experiment is Nuclear receptor subfamily 1 group I member 2 (Homo sapiens) (UniProt O75469). Put plainly: CYP3A4 induction through human pregnane X receptor (PXR) by small molecules, qHTS assay. Also: nearly all actives have a fitted effect of over 40% in size. Particulars: DPX-2 HepG2 PXR, CYP3A4-luciferin luminescence, 24 h; series mostly up to 46.1 µM; activation: at the top concentration. The source says:
National Center for Advancing Translational Sciences [NCATS]
NIH Chemical Genomics Center [NCGC]
U.S. Environmental Protection Agency [EPA]
National Institutes of Environmental Health Sciences [NIEHS]
National Toxicology Program [NTP]
The Pregnane X receptor (PXR), a ligand activated nuclear receptor plays a critical role in the regulation of genes involved in drug metabolism and transporters. Activation of PXR is responsible for unwanted adverse drug reactions. PXR binds xenobiotics and when compounds interact with PXR enhances the expression of CYP3A genes. Identifying the compounds with the potential for PXR activation and CYP3A4 induction can be of importance in improving the efficacy of drugs with less toxicity and avoiding drug-drug interactions.
DPX-2 (Puracyp, Inc.) cell lines, used for screening against human PXR activation has HepG2 cells co-transfected with a PXR response element and a luciferase construct containing CYP3A4 promoter. […]
DPX-2 cells were dispensed at 2,000 cells per well in 5uL of assay medium into white, solid-bottom 1536-well plates using a Multidrop Combi dispenser (Thermo Scientific). […] Then 5ul One-Glo assay reagent (Promega) was added to each plate by an FRD and following 30 min incubation at room temperature, luciferase activity was quantified on a ViewLux plate reader (Perkin Elmer).
(In qHTS, concentration-response curves come from the screen itself.)
Take `CN(CCCl)CCCl`: the “activation” value is inactive: -4.2%.

With `CCC(=O)N(c1ccccc1)C1CCN(CCc2ccccc2)CC1`, the Potency was active: 14.1 µM.
